According to paper PMC3762585 (Chemical & pharmaceutical bulletin, 2012):

IC50 (B16F10): 1820 ± 210 nM
IC50 (MRC-5): 1300 ± 110 nM
IC50 (SKMEL-28): 330 ± 60 nM
IC50 (JMAR): 3200 ± 620 nM
Substance: 27-deoxy-7β-hydroxy-withaferin A [Withalongolide O 1]
